Source: BindingDB's records for doi:10.1016/j.bmcl.2016.02.067 (Pfizer, 2016)

What was measured:
[1] = Inhibition of EGFR L858R/T790M double mutant in human NCI-H1975 cells assessed as suppression of cell proliferation
[2] = Inhibition of EGFR L858R mutant in human H3255 cells assessed as suppression of cell proliferation
[3] = Inhibition of EGFR Del ex19 mutant in human HCC827 cells assessed as suppression of cell proliferation

IC50 [1]: 25 nM | IC50 [2]: 9 nM | IC50 [3]: 11 nM
Compound: Cc1cc(C(=O)Nc2nc3cccc(Cl)c3n2[C@@H]2CCCCN(C(=O)/C=C/CN(C)C)C2)ccn1
